In ChEMBL document CHEMBL1121425, “4-Amino-4-arylcyclohexanones and their derivatives, a novel class of analgesics. 1. Modification of the aryl ring” (1980):

Experiments:
Mus musculus [1] = organism: Mus musculus; assay: Tested for analgesic activity using tail flick assay in mice
Mus musculus [2] = organism: Mus musculus; assay: Tested for analgesic activity using tail pinch assay in mice
Mus musculus [3] = organism: Mus musculus; assay: Tested for analgesic activity using HCl writhe assay in mice in mice

| Compound | ED50 (Mus musculus [1]) [mg/kg] | ED50 (Mus musculus [2]) [mg/kg] | ED50 (Mus musculus [3]) [mg/kg] |
| --- | --- | --- | --- |
| CN(C)C1(c2ccccc2Cl)CCC(=O)CC1 | 22 | 35 | 20 |
| Cc1ccccc1C1(N(C)C)CCC(=O)CC1 | 63 | 63 | 63 |
| CN(C)C1(c2ccc(Cl)cc2Cl)CCC(=O)CC1 | – | – | 71 |
| CN(C)C1(c2cccs2)CCC(=O)CC1 | 63 | 63 | 32 |
